# How the values were obtained:
# Mus musculus [1] = species: Mus musculus; experiment: Protective index, ratio of TD50 for mouse to ED50 for inhibition of maximal electroshock-induced seizure in mouse
# Mus musculus [2] = experiment: Protective index, ratio of TD50 for mouse to ED50 for inhibition of subcutaneous pentylenetetrazole-induced seizure in mouse
smiles,measurement,setting,value
CCCC(CCC)C(=O)[O-].[Na+] [VALPROATE SODIUM],Ratio,Mus musculus [1],1.6
same,Ratio,Mus musculus [2],2.9
